Assay: Serum pharmacokinetics after oral administration in C57BL/6J mice
Assay type: in vivo
Details: AUC0−t hybrid formulation / AUC0−t native apigenin
Protocol: For the detection of the conjugate, the EVOQ Elite ER TQ (Bruker) mass spectrometer was operated in negative ionization electrospray mode (ESI) under multiple reaction monitoring (MRM). Using MRM builder, a feature of MS workstation Bruker software, the optimal MRM transitions for monitoring 4′-DHA-apigenin were m/z 579.3 → 267.9 and 579.3 → 403. Optimum ESI conditions were determined as follows: spray voltage, 4500 V; heated probe gas flow, 50 units; heated probe temperature 350℃; cone gas flow, 20 units; cone temperature, 200 °C; nebulizer gas flow, 40 units. Total control of LC and MS, as well as data acquisition, were performed with MSWS software, Version 8.2.1 (Bruker). For the pharmacokinetic studies, a Xevo-G2-XS-QtoF mass spectrometer, coupled to a Waters UPLC I-Class Binary Solvent Manager (Waters Corp., Milford, MA, USA) was used. The mobile phases were composed of water (LC-MS grade) with formic acid 0.1% (A), and acetonitrile (LC-MS grade) with formic acid 0.1% (B). […]
The Phoenix^TM (www.certara.com)®. software was used for data analysis using non-compartmental PK analysis (NCA). […] To calculate the PK parameters and their standard errors (SE), the mean concentration curve is calculated and used in conjunction with the available subject information. […]

CC/C=C\C/C=C\C/C=C\C/C=C\C/C=C\C/C=C\CCC(=O)Oc1ccc(-c2cc(=O)c3c(O)cc(O)cc3o2)cc1 [4′-DHA-apigenin hybrid, 4′-DHA-apigenin]
Relative bioavailability: 262%

From publication PMC10005222, “Development of a Novel Apigenin Dosage form as a Substitute for the Modern Triple Antithrombotic Regimen” (Molecules, 2023)
